SMILES strings stand for the structures.

This data set in a line: Lipophilicity, log K in methanol water. In kind it is physicochemical.
With `CSc1nc(Nc2cccc(Br)c2)c2cnn(CC(Cl)c3ccccc3)c2n1` (configuration not stated), the “log K” value turned out to be 6.37.

As for `COc1ccc(CNc2nc(SC)nc3c2cnn3CC(Cl)c2ccccc2)cc1` (configuration not stated), the “log K” value is 5.8.

Take `CCSc1nc(Nc2cccc(Cl)c2)c2cnn(CC(Cl)c3ccccc3)c2n1` (configuration not stated): the “log K” value is reported as 6.75.

With `CCSc1nc(NCCc2ccccc2)c2cnn(CC(Cl)c3ccccc3)c2n1` (configuration not stated), the “log K” value is reported as 6.28.

In the case of `CSc1nc(Nc2cccc(Br)c2)c2cnn(CC(Cl)c3ccc(F)cc3)c2n1` (configuration not stated), the “log K” value is reported as 6.69.

With `CSc1nc(NCc2ccccc2Cl)c2cnn(CC(Cl)c3ccccc3)c2n1` (configuration not stated), the “log K” value was found to be 5.94.

Regarding `CSc1nc(NCCc2ccccc2)c2cnn(CC(Cl)c3ccccc3)c2n1` (configuration not stated), the “log K” value is given as 6.01.

Values taken from ChEMBL document CHEMBL1153611, “Determination of permeability and lipophilicity of pyrazolo-pyrimidine tyrosine kinase inhibitors and correlation with biological data” (Eur J Med Chem, 2009).
